Literature values in patent publication US20220331213A1, “ANTIMICROBIAL COMPOSITIONS COMPRISING A BENZOIC ACID ANALOG AND ACID PH BUFFERS” (eHealth Nexus LLC, priority 2021, published 2022).

Details: aqueous pKa

## O=C(O)c1cccnc1 [nicotinic acid]
  pKa (acid dissociation constant): ~4.75
